{
  "source": "ChEMBL document CHEMBL1128490",
  "about": "“(+/-)-(Z)-2-(aminomethyl)-1-phenylcyclopropanecarboxamide derivatives as a new prototype of NMDA receptor antagonists” (J Med Chem, 1995)",
  "molecular_target": "Glutamate NMDA receptor",
  "assay": "Inhibition of [3H]MK-801 binding to NMDA receptor of rat cerebral cortical synaptic membrane",
  "summary_of_the_method": "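Rat cerebral cortical synaptic membranes incubated with [3H]MK-801 (4 nM) in presence of glutamate (10 μM) and glycine (10 μM); test compound displacement of radioligand binding measured following a previously reported method.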",
  "data": [
    {"smiles": "CN(C)CCCN1c2ccccc2CCc2ccccc21", "note": "[IMIPRAMINE]", "values": [
      {"measurement": "IC50", "value": 14, "unit": "µM"}
    ]}
  ]
}
